This assay has as its target recombinant unmethylated bovine actin (bovine, UniProt P60712 1-375). Put plainly: MST.

These results are taken from paper PMC10278977 (2023).

B1: NMAD-1 truncation (Δ1–31), NMAD-1(32–291) (domain or fragment)
chain: EDKHVNYKVFIYDHIRQIAIPTTNLNSQSSLEDIIDESTSCQSVSTDGSIEIDGLTLIHNFLSESEESKILNMIDTVEWAQSQSGRRKQDYGPKVNFKHKKVKTDTFVGMPEYADMLLNKMSEYDVKKLGNYQPFEMCNLEYEEVKKSAIEMHQDDMWIWGNRLISINLINGSVMTLSNDNKSFLCYVHMPHRSLLCMADECRYDWKHGVLAHHIRGRRIALTMREAAKDFAEGGELYEKYGAELIRLGNIRVPLSKTSV
In general, Kd refers to the constant that tells how readily two partners part at equilibrium. With B1, the Kd is 13.4 µM.
